Nrf2 activator – Nrf2 pathway activation. AREc32 ARE-luciferase reporter (MCF7-derived line), luminescence, 24 h. Potency, µM (highest dose often 46.1 µM), for inactives: at the top dose activation, actives largely listed as activators. 0.31% of 410,000 active. AID 624171; also: potency is read from the fitted curve at half-maximal effect; % of control where 0% means no effect; nearly all actives have a fitted effect of over 65% in size
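AREc32 cells carrying an ARE-driven firefly luciferase, 1000 cells/well in OPTI-MEM with 5% FBS, dosed after overnight attachment and incubated 24 hr at 37 deg C. Steady-Glo luminescence read after 30 min at RT.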
A549 tox – counter-screen for Nrf2 inhibitors: cytotoxicity in A549 cells; A549 ARE-Fluc cells, CellTiter-Fluor viability, 18-24 h; Potency, µM (highest dose often 46 µM), for the others: at the highest dose activity change, negative = cytotoxicity, most hits filed as inhibitors; 0.16% of 390,000 active; AID 504648; also: potency is read from the fitted curve at half-maximal effect; % is scaled to controls: 0 for no effect and ±100 for the full control effect
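A549 ARE_Fluc cells in 5% FBS OPTI-MEM were exposed to compounds in concentration-response for 18-24 h at 37 deg C. Viability was read by CellTiter-Fluor fluorescence (Ex 405/Em 525) after 30 min, before the luciferase read.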
Nrf2 block – blocks Nrf2 signaling | A549 ARE-Fluc reporter, luciferase luminescence, 18-24 h | Potency, µM (doses to about 46 µM), without a hit: at the top dose activity change, negative = inhibition, hits mostly inhibitors | 2.1% of 360,000 active; also: potency is read from the fitted curve at half-maximal effect; % is scaled to controls: 0 for no effect and ±100 for the full control effect; nearly all actives have a fitted effect of over 60% in size
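Nrf2 function is reported as luminescence of an ARE-controlled luciferase in A549 cells. Compounds were tested at several concentrations, and a CellTiter-Fluor read on the same wells flagged cytotoxicity.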
miR-21 reporter – raises the signal of a miR-21 reporter; AID 2288; 340,000 tested, under 10 active; Potency, µM (doses to about 38.3 µM), inactives show at the top dose reporter change, positive = more light; HeLa miR-21 FLuc reporter, luciferase, 48 h; active = well fitted rising curve with a large enough effect; inconclusive = small, poorly fitted or top-dose-only effect; inactive = no such curve, though single readings can be large or run the other way;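 note: % of control where 0% means no effect; miR-21 action dims this reporter so a rising signal means less miR-21 action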
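Compounds were titrated across several concentrations (up to approximately 40 uM) and incubated 48 hours with HeLa miR-21-FLuc reporter cells (miR-21 target sequence downstream of FLuc, endogenous miR-21). Readout was firefly luciferase luminescence after lytic detection reagent.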
ClpP mod – qHTS Assay for Activators of ClpP. Potency, µM (top dose mostly 57.5 µM), without a hit: at the highest dose activity change, negative = active. 1.9% of 340,000 active. ATP-dependent Clp protease proteolytic subunit (Bacillus subtilis (strain 168)), P80244. purified B. subtilis ClpP, FRET peptide cleavage, 20 min; active = well fitted falling curve with a large enough effect; inconclusive = small, poorly fitted or top-dose-only effect; inactive = no such curve, though single readings can be large or run the other way; also: potency is read from the fitted curve at half-maximal effect; the source files actives as falling curves though it sought activators and does not explain the sign; nearly all actives have a fitted effect of over 65% in size
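Purified B. subtilis ClpP, 10 microg/mL final in Tris/HCl pH8 with KCl, BSA, glycerol and Tween-20, cleaved an Abz/nitrotyrosine-quenched decapeptide. Fluorescence (ex 320, em 430) was read at 0 and 20 min at room temperature. Delta was normalized to 5.8 microM ADEP and DMSO/no-enzyme controls.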
IL-2 act – IL-2 activation | IL-2 activation reporter assay, cell-based qHTS; stimulated with anti-CD3/CD4/CD28 beads; in transgenic mouse T cells | 0.065% of 360,000 active | activation, % (series mostly up to about 46 µM); in the data active = activation above about 50%; inconclusive = mostly about 30% to 49%; also: 0% is about no effect
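Using fluorescent plate cytometry, EGFP and DsRed are detected in transgenic mouse T cells stimulated 18 h at 37 degrees C with antibody-coated beads after 60 min compound pretreatment.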
Active calls of the source: *; ? = inconclusive; / = not tested or not shown. An excerpt weighted towards active compounds, which were near 3.7% of everything screened. Unless noted, calls follow the shape of the dose curve; as a rule, active = well fitted curve in the direction sought with a large enough effect; inconclusive = small, poorly fitted or top-dose-only effect, or another doubt; inactive = no such curve, though single readings can be large; an effect the other way counts as inactive or inconclusive.

SMILES	Nrf2 activator	A549 tox	Nrf2 block	miR-21 reporter	ClpP mod	IL-2 act
N#Cc1nc(Nc2ccccc2)nc(NC2CCCCC2)n1	/	-11%	?	/	/	/
COc1ccc(CN2CCc3c([nH]c4ccccc34)C2)c(OC)c1C	5%	-13%	-1%	24%	28µM*	-1
CCOC(=O)Nc1c2ccccc2nc2ccccc12	12%	-6%	-19%	?	5%	-1
CCOC(=O)Nc1oc2ccccc2c(=O)c1C	1%	-15%	?	1%	5µM*	-1
COc1ccc(-c2nc(N)n(C(=O)c3ccc(C)cc3)n2)cc1	0%	-6%	10µM*	-12%	-4%	0
O=C(c1ccccc1)n1nc(-c2ccco2)nc1NCc1cccs1	3%	-6%	5%	-16%	1%	/
Nc1nc(-c2ccco2)nn1C(=O)c1ccc(F)cc1	-1%	4%	18µM*	-1%	-1%	0
Cc1ccc(C(=O)n2nc(-c3ccco3)nc2NCc2cccs2)cc1	0%	-5%	8.2µM*	0%	-1%	/
Cc1cc(C)c2c(=O)cc(C(=O)NCc3ccc(S(N)(=O)=O)cc3)oc2c1	2%	6%	1%	-17%	0%	/
COc1ccc(/C=C2\C=Cc3ccccc32)cc1	/	/	/	/	1%	/
CCOC(=O)c1csc(-c2sccc2Br)n1	14µM*	-3%	?	-61%	0%	1
CC1(C)CC(=O)c2cc(OCC(=O)O)ccc2O1	0%	16%	/	-4%	25µM*	0
CC1(C)CC(=O)c2cc(OCC(=O)NCCN3CCOCC3)ccc2O1	0%	0%	-14%	0%	?	1
CCOC(=O)COc1ccc2c(c1)C(=O)CC(C)(C)O2	0%	-3%	/	-1%	28µM*	0
CCOC(=O)N1CCN(C(=O)COc2ccc3c(c2)C(=O)CC(C)(C)O3)CC1	-1%	5%	-3%	1%	4%	0
CCOC(=O)COc1ccc2c(c1)C(=O)CC1(CCN(C(C)=O)CC1)O2	-1%	-2%	/	-2%	28µM*	-1
CC1(C)CC(=O)c2cc(OCC(=O)N3CCCCCC3)ccc2O1	1%	0%	?	-36%	28µM*	-2
O=C(Cc1ccccc1)Nc1sc2c(c1C(=O)Nc1ccc(Cl)cc1)CCOC2	/	-2%	-20%	/	/	/
Cc1ccc(C(C)C)c(OCC(=O)Nc2cc(-c3nc4ccccc4[nH]3)ccc2C)c1	0%	9.2µM*	6.5µM*	-7%	4%	/
COc1cc(OC)cc(C(=O)Nc2cc(-c3nc4ccccc4[nH]3)ccc2C)c1	1%	-19%	?	26%	-16%	/

Whole records, looked up by structure. Order of values: Nrf2 activator | A549 tox | Nrf2 block | miR-21 reporter | ClpP mod | IL-2 act
CCOC(=O)COc1ccc2c(c1)C(=O)CC(C)(C)O2 reads 0% | -3% | / | -1% | 28µM* | 0
COc1ccc(/C=C2\C=Cc3ccccc32)cc1 reads / | / | / | / | 1% | /
CC1(C)CC(=O)c2cc(OCC(=O)O)ccc2O1 reads 0% | 16% | / | -4% | 25µM* | 0
CC1(C)CC(=O)c2cc(OCC(=O)NCCN3CCOCC3)ccc2O1 reads 0% | 0% | -14% | 0% | ? | 1
CCOC(=O)N1CCN(C(=O)COc2ccc3c(c2)C(=O)CC(C)(C)O3)CC1 reads -1% | 5% | -3% | 1% | 4% | 0

Going on with the list:
SMILES	Nrf2 activator	A549 tox	Nrf2 block	miR-21 reporter	ClpP mod	IL-2 act
CCOC(=O)c1ccc(NC(=O)C2CCN(C(=O)N3CC(C)Oc4ccc(C)cc43)CC2)cc1 (stereo unspecified)	0%	2%	12%	1%	-1%	/
O=[S+]([O-])(c1ccc2c(c1)OCCO2)N1CCN([S+](=O)([O-])c2c(O)cc(F)cc2F)CC1	/	-3%	-10%	/	/	/
CCOC(=O)C(CC)n1nnc2sc(-c3ccccc3)cc2c1=O (stereo unspecified)	6%	0%	?	-15%	5%	/
CCCOC(=O)C(C)n1nnc2sc(-c3ccccc3)cc2c1=O (stereo unspecified)	13%	-2%	21µM*	1%	5%	/
C=CCn1c2ccccc2n2nc(C)c(=O)nc12	0%	3%	16%	1%	22µM*	4
Cc1nn2c3ccccc3n(CCN3CCCCC3)c2nc1=O	2%	-10%	10%	-9%	?	-2
CCOc1ccc(-c2nn(CC(=O)NC3CCCCC3)c3c2cnc2ccc(C)cc23)cc1	-1%	0%	-1%	0%	-22%	/
Cc1ccc(S(=O)(=O)Oc2ccc(C3C4=C(CCCC4=O)N(CCC(=O)O)C4=C3C(=O)CCC4)cc2Cl)cc1	0%	5%	14%	-7%	25µM*	3
